# According to ChEMBL document CHEMBL4359816, “Discovery and Optimization of Quinolinone Derivatives as Potent, Selective, and Orally Bioavailable Mutant Isocitrate Dehydrogenase 1 (mIDH1) Inhibitors” (J Med Chem, 2019):
# Sequences of proteins named here, by UniProt entry; tags and fusion partners are left off. Residues count along the entry.
# UniProt O75874, 2-414 R132C limits assumed: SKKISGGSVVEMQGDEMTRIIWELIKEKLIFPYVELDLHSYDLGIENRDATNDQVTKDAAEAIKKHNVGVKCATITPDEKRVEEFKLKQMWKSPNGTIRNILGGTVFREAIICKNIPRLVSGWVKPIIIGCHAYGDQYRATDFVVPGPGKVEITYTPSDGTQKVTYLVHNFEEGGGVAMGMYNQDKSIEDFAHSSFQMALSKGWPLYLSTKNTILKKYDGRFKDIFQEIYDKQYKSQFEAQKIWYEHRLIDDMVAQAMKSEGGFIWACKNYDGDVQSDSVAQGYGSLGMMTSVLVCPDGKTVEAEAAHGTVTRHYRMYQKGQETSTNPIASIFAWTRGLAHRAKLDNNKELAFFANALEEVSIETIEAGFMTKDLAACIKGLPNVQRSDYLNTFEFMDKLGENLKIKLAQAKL
# What was measured:
# [1] = target: T1, Isocitrate dehydrogenase [NADP] cytoplasmic (Homo sapiens, UniProt O75874, R132C); experiment: Inhibition of IDH1 R132C mutant in human HCT116 cells assessed as reduction in 2-HG levels after 24 hrs by RapidFire high-throughput mass spectrometry assay; type: cell-based
# [2] = target: T1, Isocitrate dehydrogenase [NADP] cytoplasmic; experiment: Inhibition of human Myc-DDK-tagged IDH1 R132C mutant assessed as reduction in NADPH consumption pre-incubated for 15 mins followed by alpha-ketoglutarate substrate and NADPH addition after 45 mins by diaphorase and resazurin dye based assay
compound,measurement,setting,value
COc1cc(N[C@@H](C)c2cc3cc(Cl)ccc3[nH]c2=O)ncc1C#N,IC50,[1],411 nM
same,IC50,[2],178 nM
